Reference: PubChem BioAssay AID2112 (National Center for Advancing Translational Sciences (NCATS), 2009)
Where “and” joins values, the source holds several entries; their conditions need not be identical. Identical values can stand only once. The list shows a part of the results, in another mix than the full data. Calls of active or inactive are those of the source. Calls come from the whole dose curve; as a rule, active = well fitted inhibition curve with a large enough effect; inconclusive = small, poorly fitted or top-dose-only effect, or effect the other way, or another doubt; inactive = no such curve, though single readings can be large or run the other way.

Molecular target: Lysosomal alpha-glucosidase (Homo sapiens) (UniProt P10253)
Assay: qHTS Assay for Inhibitors and Activators of Human alpha-Glucosidase From Spleen Homogenate;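 note: 0% = enzyme with vehicle and -100% = no enzyme basal signal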
Conditions: 4-MU-alpha-glucoside fluorescence; at 79.9 µM (top of the series)
Excerpt: NIH Chemical Genomics Center [NCGC] NIH Molecular Libraries Probe Production Centers Network [MLPCN] MLPCN Grant: R03 MH084841-01 Assay Submitter (PI): Wei Zheng NCGC Assay Overview: Alpha-glucosidase is responsible for the hydrolysis of terminal, non-reducing 1,4-linked alpha-D-glucose residues, which releases alpha-D-glucose. It is a lysosomal hydrolase that is required for the degradation of a small percentage (1-3%) of cellular glycogen in humans. Deficiency of this enzyme results in glycogen-storage disease type II (GSDII), also referred to as Pompe disease, an autosomal recessive disorder. […]
NCGC Assay Protocol Summary: This is a fluorogenic enzyme assay with 4-methylumbelliferyl-alpha-D-glucopyranoside as the substrate and human spleen homogenate containing alpha-glucosidase as the enzyme preparation. Upon hydrolysis of this fluorogenic substrate, the resulting product, 4-methylumbelliferone (which excites at 365 nm and emits at 440 nm) can be detected by a fluorescence plate reader. […] The AC50 values were determined from concentration-response data modeled with the standard Hill equation. […] (3) Add 2 ul of substrate (1 mM final) (4) Incubate at 37 C for 40 min (5) Add 2 ul stop solution (1M NaOH and 1M Glycine mixture, pH 10) (6) Detect the assay plate in a ViewLux plate reader (PerkinElmer) with Ex=365 nm and Em=440nm. […]

Structure (SMILES) | activity change, negative = inhibition
CN(CCCl)CCCl | inactive: 3.53% and inactive: -0.67%
O=[N+]([O-])C(Cl)(Cl)Cl | inactive: 3.38%
